The values below come from publication PMC6047346 (Journal of medicinal chemistry, 2017).

Protein sequences, listed by entry. Tags and fused reporters are not part of them.
UniProt Q9NYA1, whole entry: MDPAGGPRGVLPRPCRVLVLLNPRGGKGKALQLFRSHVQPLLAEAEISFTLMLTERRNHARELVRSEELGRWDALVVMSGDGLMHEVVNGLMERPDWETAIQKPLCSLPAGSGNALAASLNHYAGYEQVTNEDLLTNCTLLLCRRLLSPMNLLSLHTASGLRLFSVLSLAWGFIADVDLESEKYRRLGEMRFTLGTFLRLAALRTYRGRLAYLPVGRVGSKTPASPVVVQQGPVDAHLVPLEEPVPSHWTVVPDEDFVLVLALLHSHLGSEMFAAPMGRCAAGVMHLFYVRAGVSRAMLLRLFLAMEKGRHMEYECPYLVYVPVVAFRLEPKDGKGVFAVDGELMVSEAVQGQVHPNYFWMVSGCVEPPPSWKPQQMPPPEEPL

The target in this test is human SphK1 (Homo sapiens, UniProt Q9NYA1). As to the kind of experiment: Sphingosine kinase assay, recombinant human SphK1, γ-[32P]ATP. Particulars: compounds at 0.3 μM, triplicate; 5 μM sphingosine, 250 μM γ-[32P]ATP.

For the substance “(S)-amino(2-((3-(4-((4-(benzofuran-2-yl)thiazol-2-yl)amino)phenyl)-1,2,4-oxadiazol-5-yl)methyl)pyrrolidin-1-yl)methaniminium chloride [Compound 20ee]”, the “hSphK1 (SphK activity, % control, no inhibitor added)” value is 68 ±7 % control.
